Experimental data reported in PMC9098913, “In vitro reconstitution of Escherichia coli divisome activation” (Nature Communications, 2022).

What was measured:
[1] = target: T1, FtsA R286W (E. coli), P0ABH0; experiment: FRET or BRET; acceptor photobleaching on supported lipid bilayers; equimolar Cy3- and Cy5-FtsA with 20% unlabelled FtsA; FtsA alone, 0.4 µM; conditions: remark: other sources report otherwise
T1 chain: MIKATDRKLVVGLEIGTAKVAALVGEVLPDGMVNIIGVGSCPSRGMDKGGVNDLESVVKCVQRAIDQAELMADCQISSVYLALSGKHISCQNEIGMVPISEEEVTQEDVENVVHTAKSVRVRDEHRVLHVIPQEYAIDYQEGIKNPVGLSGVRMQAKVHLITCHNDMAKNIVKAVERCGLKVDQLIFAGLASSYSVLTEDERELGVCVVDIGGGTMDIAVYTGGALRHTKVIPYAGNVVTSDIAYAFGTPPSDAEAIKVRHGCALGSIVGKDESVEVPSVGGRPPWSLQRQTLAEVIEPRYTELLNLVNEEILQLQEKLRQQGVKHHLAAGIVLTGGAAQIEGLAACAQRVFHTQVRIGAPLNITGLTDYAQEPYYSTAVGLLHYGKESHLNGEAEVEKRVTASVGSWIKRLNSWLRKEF

[2] = target: T1, FtsA R286W (E. coli), P0ABH0; experiment: FRET or BRET; acceptor photobleaching on supported lipid bilayers with 0.25% Tris-NTA lipids pre-equilibrated with FtsN_(cyto), and 1.25 µM unlabelled FtsZ; 0.4 µM FtsA; conditions: remark: other sources report otherwise
[3] = test system: FtsA self-interaction; experiment: FRET (acceptor photobleaching) self-interaction of FtsA on supported lipid bilayers; type: binding, E. coli
Excerpt: To directly measure FtsA self-interaction in our fluorescence microscopy experiments, we established a FRET (Förster resonance energy transfer)-based assay using FtsA labelled with either Cy5 (acceptor) or Cy3 (donor). […] We then decided to use this approach to measure the degree of FtsA self-interaction on supported lipid membranes by quantifying the increase in donor fluorescence after photobleaching the acceptor fluorophore[30]–[32] (Fig. 3c–e and Fig. S3d). […] As a negative control, we also attached the Hexahistidine-SUMO-tag (His-SUMO) labelled with Cy5 and Cy3 to membranes with an increasing density of Tris-NTA lipids.
(§1) Equimolar concentrations of Cy3- and Cy5-labelled FtsA, supplemented with 20% unlabelled FtsA were used to study FRET and FRAP. Five pre-bleach frames were acquired, followed by acceptor photobleaching of a rectangular ROI with 40% 641 nm laser power and a dwell size of 1 µs/pixel, 75% overlapping lines. The recovery of the signal or the increase in donor intensity were measured with either two frames or one frame per second.
Bleaching the acceptor dye leads to an increase in the donor intensity, which can be used to quantify the Foerster Resonance energy transfer (FRET)[48]. FRET efficiency was quantified with E%=Ipost/Ipost+Ipre⋅100 , where Ipost is the intensity of the […] and Ipre is the […]. […] To extract the contribution of both processes, we adjusted a routine recently published by Gerganova et al.[33]. In short, the code provides the contribution of both modes of recovery by analysing the shape of the fluorescence recovery profile. […] Contribution of diffusion leads to a change of the slope of the outer borders of the bleached region (S4h right). Thus, by measuring the change of the slope of the border recovery, diffusion and simple on/off binding can be distinguished. We developed “FRAPdiff”, a graphical user interface, which uses the original fit routine by David Rutkowski. It can be used directly on.tiff movies with annotated bleach regions as ImageJ ROIs. In addition, we added optional bleach correction, user selectable projection axis (x or y), and optional mirroring of the recovery profiles, if bleaching was not symmetric. The original fit routine for estimating the recovery and diffusion dynamics can be found at https://github.com/davidmrutkowski/1DReflectingDiffusion. FRAPdiff is available at 10.5281/zenodo.6400639[49] under the GPLv3 open-source license.

[4] = Single-molecule diffusion coefficient of FtsA on the membrane; conditions: Fig. 3b
Method: (§2) First, we studied the behaviour of single FtsA proteins on the membrane surface.
(§3) After 5 min of incubation, single molecule time lapses were acquired every 125, 250, 500, and 1000 and 2000 ms, with an exposure time of 50 ms. Subsequently, the bulk concentration of FtsA was increased to 0.2/0.4/0.8 µM and time lapses were repeated as described above.
(§4) Single molecules of FtsA or FtsZ were tracked using the TrackMate plugin from ImageJ[43]. To obtain the residence time of FtsZ and FtsA, we performed a residence time analysis as described before[40],[47]. Shortly, single molecules were imaged at different acquisition rates (0.1–2 s) and the lifetime of the molecules was extracted from each data set. To account for photobleaching effect, the obtained lifetimes were plotted against the acquisition rate. […] Furthermore, we extracted the diffusion coefficient of FtsA single molecules at increasing concentrations. For this, we filtered the obtained data, by considering only trajectories which are present on the membrane for more than 0.4 s. […] Subsequently, the diffusion coefficient of FtsA molecules was estimated by fitting an MSD curve to each individual trajectory.

[5] = Membrane off-binding rate (koff) of FtsA from FRAP; conditions: in the presence of FtsZ
Excerpt: We could also use the data from these bleaching experiments to quantify the membrane-binding kinetics and diffusion of membrane-bound proteins by analysing the change of the fluorescence profile during recovery.
as §1
Bleaching the acceptor dye leads to an increase in the donor intensity, which can be used to quantify the Foerster Resonance energy transfer (FRET)[48]. FRET efficiency was quantified with E%=Ipost/Ipost+Ipre⋅100 , where Ipost is the intensity of the […] and Ipre is the […]. […] To extract the contribution of both processes, we adjusted a routine recently published by Gerganova et al.[33]. In short, the code provides the contribution of both modes of recovery by analysing the shape of the fluorescence recovery profile. […] Contribution of diffusion leads to a change of the slope of the outer borders of the bleached region (S4h right). […]

[6] = Single-molecule membrane residence time of FtsA; type: binding; conditions: for mean residence time on the membrane: single-particle tracking, n = 3; for residence time, fold shorter than wild-type FtsA: 0.1–0.8 µM
Method: as §2, §3, §4

B1: FtsA R286W, P0ABH0 1-420 (natural protein)
chain: MIKATDRKLVVGLEIGTAKVAALVGEVLPDGMVNIIGVGSCPSRGMDKGGVNDLESVVKCVQRAIDQAELMADCQISSVYLALSGKHISCQNEIGMVPISEEEVTQEDVENVVHTAKSVRVRDEHRVLHVIPQEYAIDYQEGIKNPVGLSGVRMQAKVHLITCHNDMAKNIVKAVERCGLKVDQLIFAGLASSYSVLTEDERELGVCVVDIGGGTMDIAVYTGGALRHTKVIPYAGNVVTSDIAYAFGTPPSDAEAIKVRHGCALGSIVGKDESVEVPSVGGRPPWSLQRQTLAEVIEPRYTELLNLVNEEILQLQEKLRQQGVKHHLAAGIVLTGGAAQIEGLAACAQRVFHTQVRIGAPLNITGLTDYAQEPYYSTAVGLLHYGKESHLNGEAEVEKRVTASVGSWIKRLNSWLRKEF
modifications: here or on the partner: Cy3 or Cy5 at the N-terminus in the labelled form (labelled CLEPTGG peptide conjugated to the 5xGly tag by sortagging); unlabelled protein also used; Cy3 or Cy5 at the N-terminus in the labelled form (labelled CLEPTGG peptide conjugated to the 5xGly tag by sortagging); unlabelled protein also used
[1]
  FRET efficiency, 0.4 µM FtsA: 8.1%
[2]
  FRET efficiency with FtsN (cyto) and FtsZ, 0.4 µM FtsA: 28.1%

B2: FtsA R286W (protein)
chain: MIKATDRKLVVGLEIGTAKVAALVGEVLPDGMVNIIGVGSCPSRGMDKGGVNDLESVVKCVQRAIDQAELMADCQISSVYLALSGKHISCQNEIGMVPISEEEVTQEDVENVVHTAKSVRVRDEHRVLHVIPQEYAIDYQEGIKNPVGLSGVRMQAKVHLITCHNDMAKNIVKAVERCGLKVDQLIFAGLASSYSVLTEDERELGVCVVDIGGGTMDIAVYTGGALRHTKVIPYAGNVVTSDIAYAFGTPPSDAEAIKVRHGCALGSIVGKDESVEVPSVGGRPPWSLQRQTLAEVIEPRYTELLNLVNEEILQLQEKLRQQGVKHHLAAGIVLTGGAAQIEGLAACAQRVFHTQVRIGAPLNITGLTDYAQEPYYSTAVGLLHYGKESHLNGEAEVEKRVTASVGSWIKRLNSWLRKEF
modifications: Cy3 or Cy5 at the N-terminus in the labelled form (labelled CLEPTGG peptide conjugated to the 5xGly tag by sortagging); unlabelled protein also used; left off: TwinStrep-SUMO, N-terminal, cleaved | 5x
[3]; 0.1 µM FtsA + FtsN&Z
  FRET efficiency, mean: 18.47% and 18.4733%
[3]; 0.1 µM FtsA + FtsN
  FRET efficiency, mean: 9.23% and 9.2350%
[3]; 0.1 µM FtsA + FtsZ
  FRET efficiency, mean: 2.25% and 2.2550%
[3]; 0.1 µM FtsA alone
  FRET efficiency, mean: 1.34% and 1.3448%
[3]; 0.2 µM FtsA + FtsN&Z
  FRET efficiency, mean: 22.39% and 22.3933%
[3]; 0.2 µM FtsA + FtsN
  FRET efficiency, mean: 18.49% and 18.4880%
[3]; 0.2 µM FtsA + FtsZ
  FRET efficiency, mean: 7.1591%
[3]; 0.2 µM FtsA alone
  FRET efficiency, mean: 4.11% and 4.1052%
[3]; 0.4 µM FtsA + FtsN&Z
  FRET efficiency, mean: 28.0125% and 28.01%
[3]; 0.4 µM FtsA + FtsN
  FRET efficiency, mean: 21.2650% and 21.26%
[3]; 0.4 µM FtsA + FtsZ
  FRET efficiency, mean: 18.1945%
[3]; 0.4 µM FtsA alone
  FRET efficiency, mean: 8.0898% and 7.89%
[3]; 0.4 µM FtsA with FtsNcyto and FtsZ, p-value 0.64
  FRET efficiency: 28.1 ± 4.6%
[3]; 0.4 µM FtsA, p-value 6.12 × 10^−9
  FRET efficiency: 8.1 ± 2.8%
[3]; 0.8 µM FtsA + FtsN&Z
  FRET efficiency, mean: 30.6167% and 30.62%
[3]; 0.8 µM FtsA + FtsN
  FRET efficiency, mean: 21.2075% and 21.21%
[3]; 0.8 µM FtsA + FtsZ
  FRET efficiency, mean: 23.7840%
[3]; 0.8 µM FtsA alone
  FRET efficiency, mean: 13.3594% and 13.36%
[3]; Fig. S3f, 0.2µM FtsA + N/Z, replicate 1
  FRET efficiency: 12.4%
[3]; Fig. S3f, 0.2µM FtsA + N/Z, replicate 2
  FRET efficiency: 18.24%
[3]; Fig. S3f, 0.2µM FtsA + N/Z, replicate 3
  FRET efficiency: 25.5%
[3]; Fig. S3f, 0.2µM FtsA + N, replicate 1
  FRET efficiency: 9.44%
[3]; Fig. S3f, 0.2µM FtsA + N, replicate 2
  FRET efficiency: 17.49%
[3]; Fig. S3f, 0.2µM FtsA + N, replicate 3
  FRET efficiency: 21.95%
[3]; Fig. S3f, 0.2µM FtsA + Z, replicate 1
  FRET efficiency: 8.5%
[3]; Fig. S3f, 0.2µM FtsA + Z, replicate 2
  FRET efficiency: 3.89%
[3]; Fig. S3f, 0.2µM FtsA + Z, replicate 3
  FRET efficiency: 5.5%
[3]; Fig. S3f, 0.2µM FtsA, replicate 1
  FRET efficiency: 1.26%
[3]; Fig. S3f, 0.2µM FtsA, replicate 2
  FRET efficiency: 2.19%
[3]; Fig. S3f, 0.2µM FtsA, replicate 3
  FRET efficiency: 0.76%
[3]; Fig. S3f, 0.4µM FtsA + N/Z, replicate 1
  FRET efficiency: 35.49%
[3]; Fig. S3f, 0.4µM FtsA + N/Z, replicate 2
  FRET efficiency: 19.13%
[3]; Fig. S3f, 0.4µM FtsA + N/Z, replicate 3
  FRET efficiency: 25.1%
[3]; Fig. S3f, 0.4µM FtsA + N, replicate 1
  FRET efficiency: 32.24%
[3]; Fig. S3f, 0.4µM FtsA + N, replicate 2
  FRET efficiency: 15.7%
[3]; Fig. S3f, 0.4µM FtsA + N, replicate 3
  FRET efficiency: 10.51%
[3]; Fig. S3f, 0.4µM FtsA + Z, replicate 1
  FRET efficiency: 5.5%
[3]; Fig. S3f, 0.4µM FtsA + Z, replicate 2
  FRET efficiency: 5.74%
[3]; Fig. S3f, 0.4µM FtsA + Z, replicate 3
  FRET efficiency: 26.68%
[3]; Fig. S3f, 0.4µM FtsA, replicate 1
  FRET efficiency: 10.64%
[3]; Fig. S3f, 0.4µM FtsA, replicate 2
  FRET efficiency: 6.33%
[3]; Fig. S3f, 0.4µM FtsA, replicate 3
  FRET efficiency: 6.92%
[3]; both binding partners present
  FRET efficiency increase with FtsNcyto and FtsZ: increased three-fold
[4]
  mobility relative to WT (more mobile): 10 x
[5]
  turnover relative to FtsZ monomers (times faster): 1–2 times
[6]; 0.1 µM FtsA
  mean residence time on the membrane: 2.6 ± 0.5 s
[6]; 0.8 µM FtsA
  mean residence time on the membrane: 14.1 ± 2.3 s
[6]
  residence time, fold shorter than wild-type FtsA: 2–7 fold
[6]; listed as R286W
  residence time, fold shorter than wild-type FtsA: 2-7 fold

Several values for one entry are separate records, joined by “and”; a condition that tells them apart may be missing. Equal values may be shown once.
